The target of this assay is human Factor XIIa (Homo sapiens (Human), UniProt P00748). Briefly: Factor XIIa Assay. Type of assay: biochemical. As to conditions: read-out: FXIIa IC50; purified human Factor XIIa 500 pM; substrate n-Acetyl-Lys-Pro-Arg-AFC 100 μM; pH 7.4.

Protein sequences, listed by entry. Tags and fused reporters are not part of them. Residues count along the entry.
UniProt P00748, 373-615 limits assumed: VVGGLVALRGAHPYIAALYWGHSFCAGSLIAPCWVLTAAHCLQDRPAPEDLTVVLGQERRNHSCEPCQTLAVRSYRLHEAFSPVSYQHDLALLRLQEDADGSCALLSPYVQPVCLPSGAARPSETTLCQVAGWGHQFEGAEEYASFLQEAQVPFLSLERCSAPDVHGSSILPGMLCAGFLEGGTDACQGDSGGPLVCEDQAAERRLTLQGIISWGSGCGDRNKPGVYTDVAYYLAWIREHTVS

`CN(C)CCCC[C@H](C(=O)N1CCN(C(=O)Oc2ccccc2Cl)C[C@H]1C(=O)NCc1cccs1)N(C)C1CCC2(CC1)CCN(Cc1ccccc1)C2` (some centres unmarked): the IC50 – broadly, the midpoint of a concentration-inhibition curve – was 1.1 nM.
For the molecule `CS(=O)(=O)NCCCC[C@@H](NC1CCC2(CC1)CCN(Cc1ccccc1)C2)C(=O)N1CCN(C(=O)Oc2cccc(CN)c2)C[C@H]1C(=O)NCc1cccs1` (some centres unmarked), the IC50 was 16 nM.

The values are drawn from patent publication US10875851B2, “Factor XIIa inhibitors” (Merck Sharp & Dohme Corp., priority 2016, dated 2020).
